Yeast mating assay B: variants of the scFv Ab-14

The measurements come from Li et al. 2023 (doi:10.1038/s41467-023-39022-2) through the FLAb antibody collection.

Binding partner: SARS-CoV-2 spike HR2 peptide, sequence PDVDLGDISGINAS.

Parent: Ab-14, a human scFv built as VH, a 15-residue (Gly4Ser)3 linker, VL. Only the CDRs of the light chain vary.
VH: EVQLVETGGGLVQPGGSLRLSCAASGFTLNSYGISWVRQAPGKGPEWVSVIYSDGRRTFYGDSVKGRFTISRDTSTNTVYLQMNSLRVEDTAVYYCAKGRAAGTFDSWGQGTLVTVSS
VL: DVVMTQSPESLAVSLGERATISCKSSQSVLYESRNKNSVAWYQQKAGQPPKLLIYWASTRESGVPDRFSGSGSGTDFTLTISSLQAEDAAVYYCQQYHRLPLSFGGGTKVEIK

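The parent was found by panning a naive human phage display library on the peptide. This is the validation round: designs drawn from the data on random variants, tested in the same kind of assay. Several design methods are mixed in this list. Affinity was read by AlphaSeq, a pooled yeast mating assay with surface-displayed partners. The frequency of each diploid, read from paired DNA barcodes, reflects how well the two displayed proteins bind. A regression on co-assayed BCL2-family reference pairs converts the normalised counts of each replicate to an apparent Kd. There are six technical replicates.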

Positions count from residue 1 of the parent VL; S25M puts M in place of S. This list holds designs with at most six substitutions. Numbers give log10(Kd / nM), so 0 is 1 nM and 3 is 1 µM. Smaller is tighter. Replicates are averaged; those with no signal do not enter the mean. An entry "nd" has no value in the source: the pair was not observed among the diploids in that replicate. This suggests poor binding but is not conclusive. Order: sorted from the lowest average up, undetected variants last. The range of this assay differs from that of the first round, and the authors advise against merging the two. Empty control strains, which show no peptide, gave a signal in 4% of pairings with all light chain designs; the median was 2.64 and 95% of these signals were weaker than 1.59. No background was subtracted. The parent sequence was in this pool as ten entries: three were never detected, three once, and four in most replicates, with averages from 0.34 to 2.37. The authors averaged sequences with at least three values out of six and counted those with two or fewer as poor binders.

With S25M+Y31A+E32M+W56E the result was -0.45, -0.71, -0.54, -0.80, -0.67, -0.70 (mean -0.64).
With S25L+S26D+W56E+E61C the result was 0.18, -0.32, -0.65, -0.70, -0.28, -0.23 (mean -0.33).
With S25V+V29W+W56N+A57G the result was -0.17, -0.02, -0.38, -0.37, -0.41, -0.09 (mean -0.24).
With S25L+L30Q+S33D+W56N+T59Q the result was -0.03, -0.11, -0.17, -0.37, -0.21, -0.04 (mean -0.15).
With V29D+L30H+W56G the result was -0.01, -0.13, 0.09, -0.46, -0.14, -0.19 (mean -0.14).
With S25L+L30D+W56G the result was 0.04, -0.12, -0.18, -0.18, -0.13, 0.01 (mean -0.09).
With S25L+S26P+V29G+W56N+T59Q the result was 0.62, -0.48, 0.00, -0.18, -0.77, 0.37 (mean -0.07).
With W56D+S58M the result was 0.11, -0.01, 0.08, -0.32, -0.16, 0.06 (mean -0.04).
With S25V+Q27P+V29M+W56N the result was -0.03, -0.15, -0.15, 0.00, -0.09, 0.18 (mean -0.04).
With S25L+V29W+K36S+W56H+T59Q+S62D the result was -0.09, -0.09, -0.08, -0.10, 0.17, 0.10 (mean -0.01).
With S26L+V29Q+L30E+W56E+S62D the result was 0.17, -0.09, -0.01, -0.10, 0.01, 0.25 (mean 0.04).
With S25V+Q27W+Y31F+W56D+E61S the result was 0.27, -0.06, 0.04, -0.11, -0.03, 0.25 (mean 0.06).
With S28D+R34M+K36P+W56G the result was 0.13, 0.11, 0.07, 0.03, 0.11, 0.13 (mean 0.10).
With S25L+Q27M+L30Q+S33A+N35M+W56E the result was 0.85, 0.14, 0.16, -0.29, 0.00, -0.03 (mean 0.14).
With S25V+S26D+V29E+W56E the result was 0.43, 0.07, 0.00, 0.12, 0.13, 0.43 (mean 0.20).
With S25Q+N35D+S38A+W56D the result was 0.46, 0.29, 0.00, 0.07, 0.20, 0.20 (mean 0.20).
With S25F+Y31M+R34T+N35T+W56N the result was 0.31, 0.28, 0.17, 0.23, 0.28, 0.29 (mean 0.26).
With L30K+Y31F+W56D+S62T the result was 0.42, 0.06, 0.30, 0.34, 0.30, 0.41 (mean 0.31).
With W56G+R60P the result was 0.66, 0.04, 0.35, 0.25, 0.30, 0.30 (mean 0.32).
With S25L+V29H+W56A the result was 0.39, 0.00, 0.55, 0.03, 0.66, 0.33 (mean 0.33).
With S25L+V29W+K36S+S38N+W56D the result was 0.84, 0.34, 0.68, -0.01, -0.05, nd (mean 0.36).
With S25Q+K36M+W56M+A57G the result was 0.54, 0.48, 0.38, 0.24, 0.52, 0.59 (mean 0.46).
With S26Q+L30W+W56N+T59L+E61C the result was 0.72, 0.40, 0.42, 0.47, 0.55, 0.56 (mean 0.52).
With V29D+W56S the result was 0.61, 0.74, 0.35, 0.03, 1.20, 0.40 (mean 0.55).
With K24H+S25L+Q27D+W56N+S103D the result was 0.74, 0.81, 0.99, 0.11, 0.40, 0.67 (mean 0.62).
With S26L+L30D+K36F+W56H+S62D the result was 0.81, 0.53, 0.33, 0.56, 0.68, 0.84 (mean 0.62).
With S25L+Q27M+V29T the result was 1.11, 0.62, 0.29, 0.51, 0.74, 0.87 (mean 0.69).
With S25F+S26P the result was 0.81, 0.60, 0.74, 0.75, 0.43, 0.89 (mean 0.70).
With S25L+V29D+W56E+E61S the result was 0.74, 0.72, 0.92, 0.55, 0.63, 0.96 (mean 0.75).
With Y31F+S33R+W56D+T59F+S103Q the result was 1.04, 0.94, 0.60, 0.73, 0.48, 1.00 (mean 0.80).
With S25V+N35T+W56N+Y97M+S103M the result was 0.96, 0.84, 0.85, 1.21, 0.66, 1.07 (mean 0.93).
With Y31F+W56E the result was 0.80, 1.55, 0.88, 1.03, 0.87, 0.76 (mean 0.98).
With S25F+V29Q+W56N+T59Q+E61L the result was 0.99, 1.11, 0.92, 0.94, 0.98, 1.00 (mean 0.99).
With S25F+W56H+E61C the result was 1.33, 0.99, 0.85, 1.32, 1.03, 0.88 (mean 1.07).
With L30W+K36A+W56Q the result was 0.86, 1.96, 1.54, 0.60, 0.91, 0.96 (mean 1.14).
With Q27Y+W56H+S62M the result was 1.46, 1.57, 0.98, 1.08, 0.75, 1.27 (mean 1.18).
With S25F+S26G+S28G+W56G+S103H the result was 0.96, 1.25, 1.59, 1.01, 1.24, 1.45 (mean 1.25).
With R34S+S62E+H98V the result was 1.77, 1.32, 1.34, 1.14, 1.59, 1.20 (mean 1.39).
With S25D+R34L the result was nd, nd, nd, 0.95, 2.02, nd (mean 1.48).
With S25L+S38N+W56N+T59Q the result was nd, 1.57, nd, nd, nd, nd.
With L30W+Y31N the result was 1.76, 1.74, 1.73, 1.21, 1.93, 1.47 (mean 1.64).
With K24S+Y31E+R34F+W56H+Q96V+L100I the result was 2.66, 1.57, 1.87, 1.30, 1.29, 1.28 (mean 1.66).
With S25N+S28M+V39H+T59V+E61N+S62V the result was nd, 2.24, nd, 1.61, nd, 1.29 (mean 1.71).
With V29H+K36L the result was nd, 1.66, 2.19, 2.40, 0.95, 2.02 (mean 1.84).
With V29R+Y31E+W56Q+R60H+R99T the result was nd, 1.71, nd, 1.65, 3.12, 2.59 (mean 2.27).
With S28M+V29F the result was nd, nd, nd, nd, 2.51, nd.
With S28D+N35A+S58F+H98N the result was nd, nd, nd, nd, nd, nd.
With V39I+R60C+H98R the result was nd, nd, nd, nd, nd, nd.
With V29W+L30W+R34E the result was nd, nd, nd, nd, nd, nd.
With K36F the result was nd, nd, nd, nd, nd, nd.

For reference, 3 entries of the list once more:

changes	log10 Kd, replicates	log10 Kd (nM), mean
Q27Y+W56H+S62M	1.46, 1.57, 0.98, 1.08, 0.75, 1.27	1.18
L30K+Y31F+W56D+S62T	0.42, 0.06, 0.30, 0.34, 0.30, 0.41	0.31
V29H+K36L	nd, 1.66, 2.19, 2.40, 0.95, 2.02	1.84